{"source": "paper PMC5039417", "about": "“Aberrant Glycosylation of Anchor-Optimized MUC1 Peptides Can Enhance Antigen Binding Affinity and Reverse Tolerance to Cytotoxic T Lymphocytes” (Biomolecules, 2016)", "target": "HLA-A*0201 molecules (Homo sapiens, UniProt P04439, D140Y/D185E/D98H/E176V/E277Q/G131W/G231S/I119V/I121R/I166T/I218V/L300P/L318F/N151K/N90K/P208A/P217A/Q86G/Q94H/R138H/R169H/T345S)", "assay": "Competitive peptide inhibition assay (F1-peptide displacement on T2 cells)", "settings": "scored from IC50 in the competition assay on T2 cells"}
{"sequence": "ALGSTAPPV [P9, reference compound]", "values": [{"measurement": "Affinity class of binder to HLA-A*0201", "value": "high (“high affinity binders” with IC50 of <5 μg/mL)"}]}
